Experimental data: patent publication US11866416B2, “Streptococcus mutans glucosyl transferase inhibitors for dental caries therapy” (UAB Research Foundation, priority 2018, dated 2024)

Test system: S. mutans
Type: cell-based, Streptococcus mutans
Experimental: Cell viability of S. mutans, S. gordonii, S. sanguinis, Aggregatibacter actinomycetemcomitans and Actinomyces. […] The number of colony-forming units (CFU) per milliliter of each sample treated with selected compounds at different concentrations was enumerated after incubation for 24 h at 37° C. and compared to the values obtained from the DMSO control group. Overnight broth cultures were transferred by 1:50 dilutions into fresh THB medium and were allowed to grow until mid-exponential phase (OD470 nm 0.6) before transfer to 96-well plates containing desired concentration of the compound. After 16 h incubation, bacterial growth was measured at OD470, and normalized to the DMSO control (100%).
Cell viability of S. mutans and commensal S. gordonii and S. sanguinis. Effects of lead small molecules on cell viability were examined. The number of colony-forming units (CFU) per milliliter for each compound at different concentrations was determined after incubation for 24 h at 37° C. and compared to the values obtained from the DMSO control group.
Cell viability of S. mutans and commensal S. gordonii and S. sanguinis. […] DMSO served as a control group and provided a relative comparison for the number of colony-forming units (CFU) per milliliter for each compound at different concentrations was determined after incubation for 24 h at 37° C. […]

Which Selectivity does the source give for `N=C(N)c1ccc(/C=C/c2ccc(C(=N)N)cc2O)cc1` [Entry 5] here?
The Selectivity was 1.7.
